From ChEMBL document CHEMBL2311348, “The extremo-α-carbonic anhydrase (CA) from Sulfurihydrogenibium azorense, the fastest CA known, is highly activated by amino acids and amines” (Bioorg Med Chem Lett, 2013)

Experiments:
[1] = tested on: Sulfurihydrogenibium yellowstonense; experiment: Activation of Sulfurihydrogenibium yellowstonense recombinant CA by stopped flow CO2 hydrase method
[2] = tested on: Sulfurihydrogenibium azorense; experiment: Activation of Sulfurihydrogenibium azorense recombinant alpha carbonic anhydrase by stopped flow CO2 hydrase method
Method in brief: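 Full-length recombinant enzyme in a stopped-flow CO2 hydration assay at 25 °C: 0.2 mM phenol red read at its absorbance maximum, 10 mM Hepes pH 7.5, 0.1 M NaClO4, 10 s traces, CO2 1.7–17 mM. Activators were diluted from 10 mM water stocks down to 0.001 µM and preincubated with enzyme for 15 min at room temperature. Uncatalyzed rates were subtracted. kcat was measured at 10 µM activator. KA came from a steady-state equation, mean of ≥3 determinations.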

KA [1] [µM]	KA [2] [µM]	Compound
5.13	0.009	N[C@H](Cc1ccccc1)C(=O)O
0.008	0.062	N[C@@H](Cc1ccccc1)C(=O)O
